Results on 1 molecule are retold here after US10428024B2, “Piperidinyl derivatives” (MERCK PATENT GMBH, priority 2016, dated 2019).

In this experiment the target is PDHK2 (Homo sapiens (Human), UniProt Q15119). As to the kind of experiment: Biochemical activity testing of PDHK2: PDC inactivation assay. The following applies: read-out: Inhibition: IC50 (PDHK2); prior-art compound of WO 2001/017942; unit inferred. An excerpt:
Biochemical Activity Testing of PDHK2: PDC Inactivation Assay
The biochemical activity assay for PDHK2 is based on the inactivation of PDC through phosphorylation by PDHK2. The assay is run in two steps: the enzymatic PDHK2 reaction in which isolated PDC is phosphorylated by PDHK2 with ATP as co-substrate and the PDC activity assay in which pyruvate and NAD are converted to acetyl-CoA and NADH. The PDC activity correlates to the increase in NADH and thereby is detectable directly via the increasing fluorescence signal (Exc 340 nm, Em 450 nm). Inhibition of PDHK2 results in a lower phosphorylation status and thereby a less decrease in activity of PDC and a stronger increase in NADH fluorescence signal.
The PDC inactivation assay is performed in Greiner 384-well microtiter plates and is used for high throughput screen. […] The first fluorescence measurement is performed on a Perkin Elmer Envision (Exc 340 nm, Em 450 nm). […] Afterwards a second fluorescence measurement is performed and the PDC activity is calculated by the difference between both measurements. […] The inhibitory values (IC50) were determined using either the program Symyx Assay Explorer® or Condosseo® from GeneData.

The structures appear in SMILES notation.

Consider `C[C@@](O)(C(=O)N1CCC(NC(=O)c2ccc(C#N)cc2)CC1)C(F)(F)F`, for which the IC50 came to 9.7 µM.
